GLP1R cytotox – cytotoxic in the GLP-1 receptor inverse agonist counter-screen; HEK293 cAMP-luciferase reporter cells, luminescence, 24 h; Potency, µM (doses to about 38.3 µM), without a hit: at the top dose activity change, negative = inhibition, actives largely listed as inhibitors; 0.13% of 410,000 active; AID 624418;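 also: loss of luciferase light is scored as toxicity; potency is read from the fitted curve at half-maximal effect; % is scaled to controls: 0 for no effect and ±100 for the full control effect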
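A 23 nL compound transfer followed 12 hours of cell culture at 37 deg C; exposure then lasted 24 hr. Luciferase assay detection reagent was dispensed and plates read for luminescence after a 12 min room-temperature wait.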
GLP-1R agonist – activates the human GLP-1 receptor; P43220; HEK293 GLP-1R CRE-luciferase, luminescence, 4-6 h; cells express a hypersensitive GLP-1R form; Potency, µM (series often up to 45.6 µM), without a hit: top-dose activation, hits mostly activators; 0.007% of 380,000 active; AID 624172; also: potency is read from the fitted curve at half-maximal effect; % of control where 0% means no effect
PTHR1 ag – PTHR1 (human) receptor agonism; Q03431; HEK293 GP2 PTHR1 cells, GloSensor cAMP luminescence, 1 h; Potency, µM (doses to about 115 µM), inactives show at the highest dose activation, most hits filed as activators; 0.075% of 410,000 active; AID 743266; also: potency is read from the fitted curve at half-maximal effect; nearly all actives have a fitted effect of over 55% in size
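HEK-293-derived GP2 cells expressing PTHR1 and a GloSensor cAMP reporter, 3,000/well, plated overnight, given luciferin plus IBMX (each 0.5 mM as added) for 1 h at 37 °C, then compound for 1 h at 37 °C. Luminescence was read after 15 min at room temperature.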
GLP1R inv ag – GLP-1 receptor (human) inverse agonism; 1.6% of 410,000 active; HEK293 GLP-1R CRE-luciferase, luminescence, 24 h; GLP-1R form is constitutively active; Potency, µM (titrated, usually from 38.3 µM), for the others: at the top dose activity change, negative = inhibition, actives largely listed as inhibitors; AID 624417; P43220; also: potency is read from the fitted curve at half-maximal effect; % is scaled to controls: 0 for no effect and ±100 for the full control effect; nearly all actives have a fitted effect of over 55% in size
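Assay principle: reduced luminescence from a cAMP-responsive reporter in HEK293 cells co-expressing a constitutively active GLP-1R. Conditions: 24 hr compound incubation, 37 deg C, 5% CO2.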
Pin1 inhibitor – inhibitors of human Pin1 | Potency, µM (series often up to 115 µM), inactives show at the highest dose activity, negative = inhibition, hits mostly inhibitors | Q13526 | Pin1 FP peptide displacement, HiFluor488, 10 min | 0.009% of 390,000 active; active = well fitted inhibition curve with a large enough effect in the polarisation, with a control signal flat, not every such curve was filed as active; inconclusive = small, poorly fitted or top-dose-only effect, or effect the other way, or a change in a side signal; inactive = no such curve, though single readings can be large or run the other way; the % refers to the polarisation; also: potency is read from the fitted curve at half-maximal effect; % is scaled to controls: 0 for no effect and ±100 for the full control effect
miR-21 reporter – miR-21 reporter, rising signal | HeLa miR-21 FLuc reporter, luciferase, 48 h | Potency, µM (top dose mostly 38.3 µM), inactives show at the top dose reporter change, positive = more light | 340,000 tested, under 10 active | AID 2288; active = well fitted rising curve with a large enough effect; inconclusive = small, poorly fitted or top-dose-only effect; inactive = no such curve, though single readings can be large or run the other way;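 further: % of control where 0% means no effect; miR-21 action dims this reporter so a rising signal means less miR-21 action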
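Luminescence from a firefly luciferase reporter carrying a miR-21 binding site downstream, stably expressed under a CMV promoter in HeLa cells that make miR-21 endogenously, reports miRNA modulation after 48 h compound exposure up to approximately 40uM final.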
The depositor's hits bear a star; [ ] = remark or other dose. This is a sample that favours compounds with a hit; in the whole collection about 1.7% have one here. Unless noted, calls follow the shape of the dose curve; as a rule, active = well fitted curve in the direction sought with a large enough effect; inconclusive = small, poorly fitted or top-dose-only effect, or another doubt; inactive = no such curve, though single readings can be large; an effect the other way counts as inactive or inconclusive.

Cc1ccc(Cn2c(=O)n(CCCCC(=O)NCCc3ccc(Cl)cc3)c(=O)c3ccccc32)cc1 was read as GLP1R cytotox 4.9%, GLP-1R agonist -7.3%, PTHR1 ag -6.9%, GLP1R inv ag 0.7%, Pin1 inhibitor 13.2% and miR-21 reporter -12.0%.
Screening CCOC(=O)Cc1csc(NC(=O)CSc2nnnn2-c2ccc(C)c(C)c2)n1 returned GLP1R cytotox -16.5%, GLP-1R agonist -1.5%, PTHR1 ag inactive, GLP1R inv ag inconclusive, Pin1 inhibitor -2.7% and miR-21 reporter -5.9%.
Screening CCOC(=O)Cc1csc(NC(=O)CSc2nnnn2-c2ccc(C)cc2C)n1 returned GLP1R cytotox -19.0%, GLP-1R agonist -1.8%, PTHR1 ag -1.0%[57.5 µM], GLP1R inv ag 6.31µM*, Pin1 inhibitor -1.9% and miR-21 reporter -8.0%.
Screening O=C(O)c1ccccc1OC1=NS(=O)(=O)c2ccccc21 returned Pin1 inhibitor -3.2%.
`NC(=O)c1ccc(-c2ncc(-c3ccccc3)o2)cc1` gave GLP1R cytotox 5.3%, GLP-1R agonist -4.7%, PTHR1 ag -30.2%, GLP1R inv ag 5.62µM*, Pin1 inhibitor 8.1% and miR-21 reporter -56.2%.
For c1ccc(-c2cnc(-c3cccnc3)o2)cc1 the results were GLP1R cytotox 0.2%, GLP-1R agonist inconclusive, PTHR1 ag -11.4%, GLP1R inv ag 131.3%, Pin1 inhibitor -0.7% and miR-21 reporter -63.4%.
C[N+](C)(CCCCCC[N+](C)(C)C1c2ccccc2-c2ccccc21)C1c2ccccc2-c2ccccc21 was read as GLP-1R agonist -4.7%.
Screening O=C1c2cccc3cc([N+](=O)[O-])cc(c23)C(=O)N1CCN1CCCC1 returned GLP1R cytotox 34.2%, GLP-1R agonist -13.3%, PTHR1 ag -0.2%, GLP1R inv ag 4.47µM*, Pin1 inhibitor inconclusive and miR-21 reporter inconclusive.
For Nc1cc2c3c(cccc3c1)C(=O)N(CCN1CCCC1)C2=O the results were GLP1R cytotox 0.0%, GLP-1R agonist -7.8%, PTHR1 ag inactive, GLP1R inv ag inconclusive, Pin1 inhibitor inconclusive and miR-21 reporter inconclusive.
O=P(O)(O)OC[C@@H](O)CO was read as GLP-1R agonist 19.0%.
For Cc1ccc2nc(-c3ccc(NC(=O)C4CCCO4)cc3)[nH]c2c1 (stereo not given) the results were GLP1R cytotox 3.6%, GLP-1R agonist -19.3%, PTHR1 ag -21.2%[57.5 µM], GLP1R inv ag 7.94µM*, Pin1 inhibitor -2.8% and miR-21 reporter 9.3%.
N#Cc1cccc(NS(=O)(=O)c2ccc3c(c2)CCC(=O)N3)c1 was read as Pin1 inhibitor -3.1%.
Screening COc1ccc(COc2cc(-c3cccc(OC)c3)nc3ccc(NC(=O)c4ccc(OC)cc4)cc23)cc1 returned GLP1R cytotox -27.7%, GLP-1R agonist 14.6%, PTHR1 ag -22.1%, GLP1R inv ag inconclusive, Pin1 inhibitor 12.7% and miR-21 reporter 20.9%.
Screening COc1ccc(COc2cc(-c3cccc(OC)c3)nc3ccc(NC(=O)c4cccnc4)cc23)cc1 returned GLP1R cytotox -20.1%, GLP-1R agonist 12.1%, PTHR1 ag inactive, GLP1R inv ag 2.82µM*, Pin1 inhibitor 2.1% and miR-21 reporter 16.8%.
Screening O=S1(=O)N=C(Oc2ccc(-c3ccccc3)cc2)c2ccccc21 returned Pin1 inhibitor 3.4%.
Screening CN(C)c1cccc(N(C)C)c1CNC(=O)NC(=O)c1c(F)cccc1F returned GLP1R cytotox 1.6%, GLP-1R agonist -4.2%, PTHR1 ag inactive, GLP1R inv ag 10µM*, Pin1 inhibitor -2.0% and miR-21 reporter 0.6%.
CN(C)c1cccc(F)c1C(=O)NC(=O)Nc1ccc(Cl)cc1 was read as GLP1R cytotox inconclusive, GLP-1R agonist -1.0%, PTHR1 ag -11.9%, GLP1R inv ag 8.91µM* and Pin1 inhibitor -1.0%.
Screening CC(C)(C)c1ccc(NC(=O)c2c(F)cccc2Cl)cc1 returned GLP1R cytotox 0.0%, GLP-1R agonist -4.5%, PTHR1 ag -33.5%, GLP1R inv ag inconclusive, Pin1 inhibitor -5.5% and miR-21 reporter -43.4%.
`O=C(NCC1CC1)NC(=O)c1c(F)cccc1Cl` gave GLP1R cytotox -6.0%, GLP-1R agonist 27.2%, PTHR1 ag inactive, GLP1R inv ag -4.4%, Pin1 inhibitor -1.1% and miR-21 reporter -0.9%.
CCNC(=O)C(=O)c1c(-c2ccccc2)[nH]c2ccccc12 was read as GLP1R cytotox -2.1%, GLP-1R agonist 1.0%, PTHR1 ag inactive, GLP1R inv ag -13.6%, Pin1 inhibitor 26.1% and miR-21 reporter -2.4%.
Nc1sc(Cc2ccccc2)cc1C(=O)c1c(-c2ccccc2)[nH]c2ccccc12 was read as GLP1R cytotox inconclusive, PTHR1 ag -73.6% and GLP1R inv ag 5.62µM*.
Screening CC(C)CC(O)(CC(C)C)C(=O)NNc1ccccc1 returned GLP1R cytotox -14.9%, GLP-1R agonist -7.7%, PTHR1 ag inactive, GLP1R inv ag 5.62µM*, Pin1 inhibitor 6.6% and miR-21 reporter -10.1%.
CCCC(=O)O[C@]1(C(=O)CCl)[C@H](C)C[C@@H]2[C@H]3CCC4=CC(=O)C=C[C@]4(C)[C@@]3(F)C(=O)C[C@@]21C was read as GLP-1R agonist -2.2%.
CN1C(=S)N(c2cccnc2)C(=O)/C1=C\c1ccc(C(C)(C)C)cc1 was read as GLP1R cytotox 21.9%, GLP-1R agonist -5.4%, PTHR1 ag -42.6%, GLP1R inv ag 11.2µM*, Pin1 inhibitor 23.4% and miR-21 reporter -2.0%.
For Cc1c(N2C(=O)/C(=C\c3ccc(N(C)C)cc3)N(C)C2=S)c(=O)n(-c2ccccc2)n1C the results were GLP1R cytotox inconclusive, GLP-1R agonist -5.5%, PTHR1 ag inactive, GLP1R inv ag -22.4%, Pin1 inhibitor inconclusive and miR-21 reporter -3.2%.
`CN1C(=S)N(c2cccnc2)C(=O)/C1=C\c1ccc(N(C)C)cc1` gave GLP1R cytotox 10µM*, GLP-1R agonist 20.5%, PTHR1 ag -11.9%, GLP1R inv ag inconclusive, Pin1 inhibitor 62.5% and miR-21 reporter 3.5%.
For CC(C)(C)c1ccc(/C=C/C(=O)Nc2cccnc2)cc1 the results were GLP1R cytotox -6.0%, GLP-1R agonist 10.1%, PTHR1 ag -36.8%, GLP1R inv ag inconclusive, Pin1 inhibitor 2.2% and miR-21 reporter -32.4%.
`CC[N+]1(CC)CCC(=C(c2ccccc2)c2ccccc2)C1C` (stereo not given) gave GLP-1R agonist -0.9%.

Random excerpt: four entries already listed
CN1C(=S)N(c2cccnc2)C(=O)/C1=C\c1ccc(C(C)(C)C)cc1 was read as GLP1R cytotox 21.9%, GLP-1R agonist -5.4%, PTHR1 ag -42.6%, GLP1R inv ag 11.2µM*, Pin1 inhibitor 23.4% and miR-21 reporter -2.0%.
Screening CC(C)CC(O)(CC(C)C)C(=O)NNc1ccccc1 returned GLP1R cytotox -14.9%, GLP-1R agonist -7.7%, PTHR1 ag inactive, GLP1R inv ag 5.62µM*, Pin1 inhibitor 6.6% and miR-21 reporter -10.1%.
For Cc1c(N2C(=O)/C(=C\c3ccc(N(C)C)cc3)N(C)C2=S)c(=O)n(-c2ccccc2)n1C the results were GLP1R cytotox inconclusive, GLP-1R agonist -5.5%, PTHR1 ag inactive, GLP1R inv ag -22.4%, Pin1 inhibitor inconclusive and miR-21 reporter -3.2%.
For CC(C)(C)c1ccc(/C=C/C(=O)Nc2cccnc2)cc1 the results were GLP1R cytotox -6.0%, GLP-1R agonist 10.1%, PTHR1 ag -36.8%, GLP1R inv ag inconclusive, Pin1 inhibitor 2.2% and miR-21 reporter -32.4%.

Screening results (PubChem)
